Only a part of the results on these compounds is given; other tests are left out.
Legend:
HEK 293 cells = assay: OR-PAM photoacoustic imaging of HEK 293 cells stained with DPA alone under different membrane resting potentials; details: ~68 mV membrane resting potential change induced by extracellular K+ concentration change
From the text: HEK 293 cells stained with the hybrid DiO/DPA dye were imaged under different resting potentials. HEK 293 cell membrane resting potential was changed by changing the environmental potassium ion concentration. DPA dye alone may provide voltage-sensitive photoacoustic contrast. HEK 293 cells stained with DPA alone were imaged under different resting potentials. […] Additional dyes may be screened for an optimal optical excitation wavelength in the deep-penetration optical window (red or NIR), the results may be quantified using the voltage clamp technique as the gold standard, and optical pulse energy may be optimized for the detection of voltage-sensitive photoacoustic imaging probes. The selected dyes and optimized parameters may be applied in the in vivo mouse brain imaging experiment.
We conducted preliminary experiments again with HEK 293 cell culture preparation and a transmission mode optical resolution photoacoustic microscope, except that HEK 293 cells were stained only with DPA [1]. Similarly, we first imaged stained cells in DPBS using OR-PAM to acquire a baseline image. Then we changed the cell membrane resting potential by varying the cell's external environmental potassium (K^+) concentration.
The error bar represents one standard deviation. […]

mouse brains = assay: In vivo M-mode photoacoustic imaging of mouse brain through open skull window with pharmacological manipulations; details: mouse cortex, shortly after topically applying DPA dye; baseline without dye shows no activity

SMILES: O=[N+]([O-])c1cc([N+](=O)[O-])c(Nc2c([N+](=O)[O-])cc([N+](=O)[O-])cc2[N+](=O)[O-])c([N+](=O)[O-])c1
- PA signal change (HEK 293 cells): 200%
- PA signal (M-mode) after dye application (mouse brains): intermittent low-amplitude PA signal consistent with isolated spontaneous neural activity
